Assay results reported in PMC12738692, “Identification, characterization, and structure-activity relationship of the ASIC3-selective peptide WRPRFa” (Communications Chemistry, 2025).

Molecular target: ASIC313 concatemeric heterotrimer (ASIC3-ASIC1a-ASIC3 in tandem) (human) (UniProt Q9UHC3)

WRPRFa (peptide)
EC50 of I3s/Ipk, escalating WRPRFa before pH 6.3, manual patch clamp, CHO cells: > 12.6 µM
